For 13 molecules, binding signal results are on record in article PMC7723054.

This is one part of the list.

B1: hsa-mir-5681a (structured_RNA)
RNA: GGGAAGAGUAUCAGCGCCCAAGUCAUUUGGUGUACGAAGUUUCAGCUUCUAGUCCCUAUUAGACUAGAAGCUGAAGCUUCGUGCAC
B2: hsa-mir-5682 (structured_RNA)
RNA: GGGACGGCUAAUCCAUCGGUAAAAUAAGGGUGUACGAAGUUUCAGCCUGCAGAGACGAGGCCUGUAGGCUGAAGCUUCGUGCAC
B3: hsa-mir-216b (structured_RNA)
RNA: GGGAACACCUACUACUCUGGACCCCUCCGGUGUACGAAGUUUCAGCAUGUGAUGUCACUGAGGAAAUCACACGCUGAAGCUUCGUGCAC
B4: hsa-mir-3670-3_3670-2_3670-1_3670-4 (structured_RNA)
RNA: GGGAGCAGUACAACGGGUUUCUAGCCUCGGUGUACGAAGUUUCAGCCCUCACCUGCUGAGAGGCUGAAGCUUCGUGCAC
B5: hsa-mir-378d-1 (structured_RNA)
RNA: GGGAGGGAACCCGCAAACUGAUUAGCUCGGUGUACGAAGUUUCAGCUUGUUGUUAUUACUGCUGAAGCUUCGUGCAC
B6: hsa-mir-1539 (structured_RNA)
RNA: GGGAACUACAAAUCAAGCCAAGCGUGGAGGUGUACGAAGUUUCAGCAGCGCGAAAGUGCUGAAGCUUCGUGCAC
B7: hsa-mir-1237 (structured_RNA)
RNA: GGGAACUGGGAACUGCACGGUAUUAUUAGGUGUACGAAGUUUCAGCAGCGCGGCGACCGUAACUCCUGCUGAAGCUUCGUGCAC
B8: hsa-mir-211 (structured_RNA)
RNA: GGGACAAUGCAAGCGCACAUAGAAGCUUGGUGUACGAAGUUUCAGCUCGCCUAGGGCUCUGAGCAGGGCAGCUGAAGCUUCGUGCAC
B9: hsa-mir-190b (structured_RNA)
RNA: GGGAAAUAAGAUACUACGGGAUCGUCCGGGUGUACGAAGUUUCAGCGGUUGUUUAAUUAGGAACCAACUGCUGAAGCUUCGUGCAC
B10: hsa-mir-208b (structured_RNA)
RNA: GGGAAGUACGAUCGAGGGCUUAAUGUCAGGUGUACGAAGUUUCAGCUUAUGUUUCUGAUCCGAAUAUAAGCUGAAGCUUCGUGCAC
B11: hsa-mir-2392 (structured_RNA)
RNA: GGGAGAGGGUUCAAACGUUGAAUAACACGGUGUACGAAGUUUCAGCUCCUCAGACCAGGUGGCUCCCGAGCCACCCCAGGCUGUAGGGCUGAAGCUUCGUGCAC
B12: hsa-mir-6737 (structured_RNA)
RNA: GGGAAAAUGGACAUCUAGGCAUCGCGUAGGUGUACGAAGUUUCAGCUGGAGGGGGUUUGUUUGCUUAUUCCCCUCUGCUGAAGCUUCGUGCAC
B13: hsa-mir-3591 (structured_RNA)
RNA: GGGACCGGAGCCGCAGUUCUGUAGAAAGGGUGUACGAAGUUUCAGCGUUUGAUAGUUUAGACACAAACGCUGAAGCUUCGUGCAC

The target in the first assay is T1, LIN28A (human?, UniProt Q9H9Z2 1-209).
T1 sequence: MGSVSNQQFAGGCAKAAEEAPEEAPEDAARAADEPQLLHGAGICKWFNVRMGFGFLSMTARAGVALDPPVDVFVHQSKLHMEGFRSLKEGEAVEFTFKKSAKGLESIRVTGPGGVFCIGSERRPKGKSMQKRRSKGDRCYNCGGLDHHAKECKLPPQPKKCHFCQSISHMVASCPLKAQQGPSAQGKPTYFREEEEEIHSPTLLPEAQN
Put plainly: FOREST: bead pull-down of RNA structure library v1, barcode microarray; U1A/LIN28A: 20 mM HEPES pH 7.5, 80 mM KCl, 20 mM NaCl, 10% glycerol, 2 mM DTT, 0.1 ug/uL BSA, 4 C; BG4/CIRBP/DHX36: 10 mM Tris-HCl pH 7.5, 100 mM KCl (or LiCl),; high values mean tight binding.
Regarding B1, the binding signal was -0.469 z-score.
B2 had a binding signal of -0.48 z-score.
Same read-out and setting: to B3 belongs -0.497 z-score; to B4, -0.493 z-score.
The same measure, in the same setting: to B5 belongs -0.474 z-score; to B6, -0.479 z-score.
On the same count and under the same terms, to B7 belongs -0.496 z-score; to B8, -0.478 z-score.
B9 displayed a binding signal of -0.483 z-score.
Still for that read-out and setting: to B10 belongs -0.469 z-score; to B11, -0.494 z-score.
On the same count and under the same terms, to B12 belongs -0.484 z-score; to B13, -0.472 z-score.

Another assay has as its target T2, CIRBP (Homo sapiens, UniProt Q14011 1-172).
T2 sequence: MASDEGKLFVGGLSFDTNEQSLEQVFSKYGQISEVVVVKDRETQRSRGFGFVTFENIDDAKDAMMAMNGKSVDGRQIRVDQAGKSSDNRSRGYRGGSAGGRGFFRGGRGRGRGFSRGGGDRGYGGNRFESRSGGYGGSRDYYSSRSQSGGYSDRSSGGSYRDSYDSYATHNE
Described as above.
B1 yielded a binding signal of -0.476 z-score.
The molecule B2 showed a binding signal of -0.498 z-score.
B3 yielded a binding signal of -0.549 z-score.
The molecule B4 yielded a binding signal of -0.648 z-score.
The same measure, in the same setting: for B5 the value was -0.69 z-score; for B6, 0.834 z-score; for B7, 0.272 z-score.
Still for that read-out and setting: for B8 the value was -0.67 z-score; for B9, 0.0367 z-score.
Same read-out and setting: to B10 belongs 0.522 z-score.
B11 gave a binding signal of -0.755 z-score.
On to B12, for which the binding signal is 0.189 z-score.
Still for that read-out and setting: to B13 belongs 0.17 z-score.

The next assay addresses T3, DHX36 (Homo sapiens, UniProt Q9H2U1 1-1008).
T3 sequence: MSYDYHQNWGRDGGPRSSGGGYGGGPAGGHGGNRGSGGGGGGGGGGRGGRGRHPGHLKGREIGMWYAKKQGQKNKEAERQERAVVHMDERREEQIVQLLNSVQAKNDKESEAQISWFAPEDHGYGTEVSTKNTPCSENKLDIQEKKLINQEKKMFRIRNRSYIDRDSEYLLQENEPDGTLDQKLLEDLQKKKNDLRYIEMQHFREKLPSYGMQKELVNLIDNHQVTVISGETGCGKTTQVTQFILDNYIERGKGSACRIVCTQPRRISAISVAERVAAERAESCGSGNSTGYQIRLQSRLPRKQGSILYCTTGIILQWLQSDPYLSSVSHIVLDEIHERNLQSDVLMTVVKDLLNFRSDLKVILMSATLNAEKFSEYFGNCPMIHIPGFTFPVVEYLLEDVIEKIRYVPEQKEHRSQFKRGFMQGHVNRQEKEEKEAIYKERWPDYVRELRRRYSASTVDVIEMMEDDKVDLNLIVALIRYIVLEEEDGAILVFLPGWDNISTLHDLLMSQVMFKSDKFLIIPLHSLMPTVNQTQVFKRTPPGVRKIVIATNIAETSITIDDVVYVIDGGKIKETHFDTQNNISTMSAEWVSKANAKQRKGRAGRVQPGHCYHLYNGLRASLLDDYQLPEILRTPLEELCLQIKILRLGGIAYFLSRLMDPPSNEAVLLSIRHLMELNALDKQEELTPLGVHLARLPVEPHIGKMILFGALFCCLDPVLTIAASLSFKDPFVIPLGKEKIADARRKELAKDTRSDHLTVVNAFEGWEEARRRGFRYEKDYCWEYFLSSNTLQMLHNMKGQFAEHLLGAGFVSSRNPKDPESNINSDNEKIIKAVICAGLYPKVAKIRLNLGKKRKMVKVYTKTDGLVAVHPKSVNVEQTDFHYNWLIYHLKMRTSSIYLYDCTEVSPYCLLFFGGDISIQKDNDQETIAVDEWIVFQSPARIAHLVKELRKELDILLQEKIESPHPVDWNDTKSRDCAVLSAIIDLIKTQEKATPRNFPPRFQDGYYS
Described as above.
For B1, the binding signal is -0.0327 z-score.
Same read-out and setting: to B2 belongs 0.537 z-score.
Turning to B3, the binding signal was -0.565 z-score.
The same measure, in the same setting: for B4 the value was -0.0511 z-score.
The same measure, in the same setting: for B5 the value was 0.0706 z-score.
The same measure, in the same setting: to B6 belongs -1.44 z-score.
B7 gave a binding signal of -0.504 z-score.
As to B8, the binding signal is -0.507 z-score.
Still for that read-out and setting: to B9 belongs -0.863 z-score.
The same measure, in the same setting: for B10 the value was -0.0601 z-score; for B11, -0.243 z-score; for B12, 0.724 z-score.
B13 displayed a binding signal of -0.202 z-score.
